Measured values published in patent US5359138A (Zaidan Hojin Biseibutsu Kagaku Kenkyu KaI, priority 1989, dated 1994).

Amino acid sequences for entries named in this document (tags omitted).
UniProt P23687, whole entry: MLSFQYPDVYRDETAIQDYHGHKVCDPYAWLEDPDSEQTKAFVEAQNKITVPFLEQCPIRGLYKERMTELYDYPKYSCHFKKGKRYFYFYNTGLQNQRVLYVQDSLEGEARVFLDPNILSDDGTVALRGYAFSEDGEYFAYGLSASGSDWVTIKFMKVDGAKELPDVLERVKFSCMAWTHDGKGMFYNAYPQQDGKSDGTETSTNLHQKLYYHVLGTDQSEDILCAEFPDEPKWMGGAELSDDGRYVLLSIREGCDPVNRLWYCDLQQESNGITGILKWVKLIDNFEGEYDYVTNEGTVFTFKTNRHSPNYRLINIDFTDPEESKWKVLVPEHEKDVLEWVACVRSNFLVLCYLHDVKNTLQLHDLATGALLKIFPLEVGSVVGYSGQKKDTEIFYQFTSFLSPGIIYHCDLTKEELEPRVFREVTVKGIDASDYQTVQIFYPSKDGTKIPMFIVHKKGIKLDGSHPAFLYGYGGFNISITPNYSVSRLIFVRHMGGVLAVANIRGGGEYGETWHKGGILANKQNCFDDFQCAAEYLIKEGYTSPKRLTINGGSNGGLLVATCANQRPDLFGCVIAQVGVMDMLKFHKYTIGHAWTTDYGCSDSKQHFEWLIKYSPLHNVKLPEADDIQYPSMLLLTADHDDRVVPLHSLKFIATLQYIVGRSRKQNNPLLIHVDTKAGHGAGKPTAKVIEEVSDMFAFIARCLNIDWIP

Legend:
cathepsin B = cathepsin B (Homo sapiens, UniProt P07858); test: Cathepsin B inhibition activity (method by Knight)
Method: The elastase inhibition activity was determined according to a method by Mumford, R. A. et al (J. Biol. Chem., 225, 2227 (1980)). The cathepsin B inhibition activity was determined according to a method by Knight, C. G. (Biochem. J., 189, 447-453 (1980)).

prolylendopeptidase = prolylendopeptidase (Sus scrofa, UniProt P23687); test: Determination of anti-prolylendopeptidase activity; conditions: pig kidney enzyme, substrate Z-Gly-Pro-beta-naphthylamide, 37° C., 30 minutes, pH 7.8
Method: The determination of anti-prolylendopeptidase activity was conducted by a modified method based on the method by Yoshimoto et al (Biochim. Biophys. Acta, vol. 569, pages 184-192 (1979)).
A test tube was charged with a solution mixture consisting of (a) 0.2 ml of a solution of 0.5 mM N-benzyloxycarbonyl-L-glycyl-L-prolyl-beta-naphthylamide in 40% dioxane; (b) 0.5 ml of a 0.05M Tris-HCl buffer solution (pH 7.8); and (c) 0.25 ml of an aqueous solution containing the test material. The solution mixture was heated to 37° C. for 3 minutes, and admixed with 0.05 ml of a prolylendopeptidase solution to effect a reaction at 37° C. for 30 minutes. The prolylendopeptidase employed was that which had been obtained according to a modified method based on the enzyme purification method by Koida, Walter et al. (J. Biol. Chem. Vol. 251, pages 7593-7599 (1976), wherein a pig kidney sample was subjected to a fractionation operation with ammonium sulfate, and wherein a purification was effected by a column chromatography employing a DEAE-Sephadex A-50 column.
After the completion of the reaction, the reaction mixture was admixed with 1 ml of a 1M sodium acetate buffer solution containing 10% of Tween-20 and 0.1% of Fast Garnet GBC salt. The reaction mixture was allowed to stand at room temperature for 15 minutes, and then measured for the light absorption at 525 nm (a). At the same time, a control sample, which was free of the test compounds and contained only the buffer solution, was measured for the light absorption (b).
The prolylendopeptidase inhibition activity was determined by employing the formula: […]

Row | Structure (SMILES) | CatB = Cathepsin B inhibition activity, IC50 (cathepsin B) | PPCE = Propylendopeptidase inhibition activity, IC50 (prolylendopeptidase)
1 | CCC(NC(=O)[C@@H](NC(=O)OCc1ccccc1)C(C)C)C(=O)C(=O)N[C@H](CC(C)C)C(=O)N[C@H](C(=O)OCc1ccccc1)C(C)C (stereo partly shown) | > 100 µg/mL | 0.05 µg/mL
2 | CC(C)C[C@@H](NC(=O)C(=O)C(C)NC(=O)[C@@H](NC(=O)[C@@H](N)C(C)C)C(C)C)C(=O)N[C@H](C(=O)O)C(C)C (stereo partly shown) | 9 µg/mL | 0.05 µg/mL
3 | CCC(NC(=O)[C@@H](NC(=O)[C@@H](NC(=O)OCc1ccccc1)C(C)C)C(C)C)C(=O)C(=O)N[C@@H](CC(C)C)C(=O)N[C@H](C(=O)O)C(C)C (stereo partly shown) | 0.03 µg/mL | 2.2 µg/mL
4 | CCC(NC(=O)[C@@H](NC(=O)[C@@H](N)C(C)C)C(C)C)C(=O)C(=O)N[C@H](CC(C)C)C(=O)N[C@H](C(=O)O)C(C)C (stereo partly shown) | 34 µg/mL | 0.29 µg/mL
5 | CCC(NC(=O)[C@@H](NC(=O)[C@@H](NC(=O)OCc1ccccc1)C(C)C)C(C)C)C(=O)C(=O)N[C@H](CC(C)C)C(=O)N[C@H](C(=O)O)C(C)C (stereo partly shown) | 1.1 µg/mL | 0.034 µg/mL
6 | CC[C@H](NC(=O)[C@@H](NC(=O)[C@H](CCCCN)NC(=O)OCc1ccccc1)C(C)C)C(=O)C(=O)N[C@H](CC(C)C)C(=O)N[C@H](C(=O)O)C(C)C | 0.65 µg/mL | 0.03 µg/mL
7 | CCC(NC(=O)[C@@H](NC(=O)OCc1ccccc1)C(C)C)C(=O)C(=O)N[C@H](CC(C)C)C(=O)N[C@H](C(=O)O)C(C)C (stereo partly shown) | 1.4 µg/mL | 0.065 µg/mL
8 | CCC(NC(=O)[C@@H](NC(=O)[C@@H](NC(=O)c1ccccc1)C(C)C)C(C)C)C(=O)C(=O)N[C@H](CC(C)C)C(=O)N[C@H](C(=O)O)C(C)C (stereo partly shown) | 1.4 µg/mL | 0.07 µg/mL
9 | CCC(NC(=O)[C@@H](NC(=O)[C@@H](N)C(C)C)[C@@H](C)O)C(=O)C(=O)N[C@H](CC(C)C)C(=O)N[C@H](C(=O)O)C(C)C (stereo partly shown) | 8.5 µg/mL | 0.27 µg/mL
10 | CCC(NC(=O)[C@@H](NC(=O)[C@H](CC(=O)O)NC(=O)OCc1ccccc1)C(C)C)C(=O)C(=O)N[C@H](CC(C)C)C(=O)N[C@H](C(=O)O)C(C)C (stereo partly shown) | 6.3 µg/mL | 0.39 µg/mL
11 | CCC(NC(=O)[C@@H](NC(=O)[C@@H](NC(=O)CCc1ccccc1)C(C)C)C(C)C)C(=O)C(=O)N[C@H](CC(C)C)C(=O)N[C@H](C(=O)O)C(C)C (stereo partly shown) | 2.1 µg/mL | 0.025 µg/mL
12 | CCC(NC(=O)[C@@H](NC(=O)[C@@H](NC(=O)OCc1ccccc1)C(C)C)C(C)C)C(=O)C(=O)N[C@H](CC(C)C)C(=O)N[C@H](C(=O)OC)C(C)C (stereo partly shown) | 92 µg/mL | 0.34 µg/mL
13 | CCCC(NC(=O)[C@@H](NC(=O)[C@@H](N)C(C)C)C(C)C)C(=O)C(=O)N[C@H](CC(C)C)C(=O)N[C@H](C(=O)O)C(C)C (stereo partly shown) | 1.4 µg/mL | 0.38 µg/mL
14 | CCC(NC(=O)[C@@H](NC(=O)[C@@H](NC(=O)Cc1ccccc1)C(C)C)C(C)C)C(=O)C(=O)N[C@H](CC(C)C)C(=O)N[C@H](C(=O)O)C(C)C (stereo partly shown) | 1.5 µg/mL | 0.022 µg/mL
15 | CCC(NC(=O)[C@@H](NC(=O)[C@@H](NC(=O)CCCc1ccccc1)C(C)C)C(C)C)C(=O)C(=O)N[C@H](CC(C)C)C(=O)N[C@H](C(=O)O)C(C)C (stereo partly shown) | 1.1 µg/mL | 0.04 µg/mL
16 | CCC(NC(=O)[C@@H]1CCCN1C(=O)[C@@H](NC(=O)OCc1ccccc1)C(C)C)C(=O)C(=O)N[C@H](CC(C)C)C(=O)N[C@H](C(=O)O)C(C)C (stereo partly shown) | > 100 µg/mL | 0.05 µg/mL
17 | CCC(NC(=O)[C@@H](NC(=O)[C@@H](N)C(C)C)C(C)C)C(=O)C(=O)N[C@@H](CC(C)C)C(=O)N[C@H](C(=O)O)C(C)C (stereo partly shown) | 0.04 µg/mL | 12 µg/mL
18 | CCC(NC(=O)[C@@H]1CCCN1C(=O)OCc1ccccc1)C(=O)C(=O)N[C@H](CC(C)C)C(=O)N[C@H](C(=O)O)C(C)C (stereo partly shown) | 120 µg/mL | 0.02 µg/mL
19 | CCC(NC(=O)[C@@H](NC(=O)[C@@H](N)C(C)C)C(C)C)C(=O)C(=O)NCC(=O)N[C@H](C(=O)O)C(C)C (stereo partly shown) | 0.03 µg/mL | 1.3 µg/mL
20 | CC(C)C[C@@H](NC(=O)C(=O)C(C)NC(=O)[C@@H](NC(=O)[C@@H](NC(=O)OCc1ccccc1)C(C)C)C(C)C)C(=O)N[C@H](C(=O)O)C(C)C (stereo partly shown) | 4.2 µg/mL | 0.03 µg/mL
